# Results published in publication PMC6323793, “Shikonin inhibits cancer cell cycling by targeting Cdc25s” (BMC Cancer, 2019).
# Biological target: T1, recombinant human Cdc25B (Homo sapiens, UniProt P30305)
# T1 construct: purchased CycLex CY-1353
# T1 sequence (P30305 1-580): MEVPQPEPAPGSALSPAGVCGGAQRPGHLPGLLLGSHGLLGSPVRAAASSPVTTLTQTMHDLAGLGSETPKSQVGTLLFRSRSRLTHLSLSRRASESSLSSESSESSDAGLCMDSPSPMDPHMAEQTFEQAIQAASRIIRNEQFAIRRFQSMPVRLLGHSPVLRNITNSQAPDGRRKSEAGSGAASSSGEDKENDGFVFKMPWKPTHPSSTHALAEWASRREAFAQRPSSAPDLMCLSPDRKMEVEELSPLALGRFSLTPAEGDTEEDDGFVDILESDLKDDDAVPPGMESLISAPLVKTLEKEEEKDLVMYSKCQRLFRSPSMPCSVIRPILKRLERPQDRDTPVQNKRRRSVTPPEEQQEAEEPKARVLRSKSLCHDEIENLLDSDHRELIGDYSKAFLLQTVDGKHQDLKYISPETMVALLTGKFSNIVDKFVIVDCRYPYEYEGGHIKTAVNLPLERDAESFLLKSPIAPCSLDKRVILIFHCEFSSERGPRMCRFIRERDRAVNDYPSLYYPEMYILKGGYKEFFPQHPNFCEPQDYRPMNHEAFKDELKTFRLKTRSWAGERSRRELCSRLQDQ
# Assay: Cdc25B fluorometric phosphatase assay (OMFP substrate)
# Type: biochemical
# Description: […]. Then, 25 μL of stop solution was added. Fluorescence was measured at an excitation wavelength of 485 nm and an emission wavelength of 530 nm using a fluorescence microplate reader (BioTek Instruments, Inc., Winooski, VT, USA). Menadione is a quinone-type inhibitor of Cdc25s that was used as a positive control here.
structure (smiles),measurement,value
CC(C)=CC[C@@H](O)C1=CC(=O)c2c(O)ccc(O)c2C1=O [Shikonin],IC50,5.82 ± 0.37 µM
